Test results as given in ChEMBL document CHEMBL1147965, “Dual irreversible kinase inhibitors: quinazoline-based inhibitors incorporating two independent reactive centers with each targeting different cysteine residues in the kinase domains of EGFR and VEGFR-2” (Bioorg Med Chem, 2007).

The chains behind the UniProt entries cited, without tags or fusion partners.
UniProt P35968, whole entry: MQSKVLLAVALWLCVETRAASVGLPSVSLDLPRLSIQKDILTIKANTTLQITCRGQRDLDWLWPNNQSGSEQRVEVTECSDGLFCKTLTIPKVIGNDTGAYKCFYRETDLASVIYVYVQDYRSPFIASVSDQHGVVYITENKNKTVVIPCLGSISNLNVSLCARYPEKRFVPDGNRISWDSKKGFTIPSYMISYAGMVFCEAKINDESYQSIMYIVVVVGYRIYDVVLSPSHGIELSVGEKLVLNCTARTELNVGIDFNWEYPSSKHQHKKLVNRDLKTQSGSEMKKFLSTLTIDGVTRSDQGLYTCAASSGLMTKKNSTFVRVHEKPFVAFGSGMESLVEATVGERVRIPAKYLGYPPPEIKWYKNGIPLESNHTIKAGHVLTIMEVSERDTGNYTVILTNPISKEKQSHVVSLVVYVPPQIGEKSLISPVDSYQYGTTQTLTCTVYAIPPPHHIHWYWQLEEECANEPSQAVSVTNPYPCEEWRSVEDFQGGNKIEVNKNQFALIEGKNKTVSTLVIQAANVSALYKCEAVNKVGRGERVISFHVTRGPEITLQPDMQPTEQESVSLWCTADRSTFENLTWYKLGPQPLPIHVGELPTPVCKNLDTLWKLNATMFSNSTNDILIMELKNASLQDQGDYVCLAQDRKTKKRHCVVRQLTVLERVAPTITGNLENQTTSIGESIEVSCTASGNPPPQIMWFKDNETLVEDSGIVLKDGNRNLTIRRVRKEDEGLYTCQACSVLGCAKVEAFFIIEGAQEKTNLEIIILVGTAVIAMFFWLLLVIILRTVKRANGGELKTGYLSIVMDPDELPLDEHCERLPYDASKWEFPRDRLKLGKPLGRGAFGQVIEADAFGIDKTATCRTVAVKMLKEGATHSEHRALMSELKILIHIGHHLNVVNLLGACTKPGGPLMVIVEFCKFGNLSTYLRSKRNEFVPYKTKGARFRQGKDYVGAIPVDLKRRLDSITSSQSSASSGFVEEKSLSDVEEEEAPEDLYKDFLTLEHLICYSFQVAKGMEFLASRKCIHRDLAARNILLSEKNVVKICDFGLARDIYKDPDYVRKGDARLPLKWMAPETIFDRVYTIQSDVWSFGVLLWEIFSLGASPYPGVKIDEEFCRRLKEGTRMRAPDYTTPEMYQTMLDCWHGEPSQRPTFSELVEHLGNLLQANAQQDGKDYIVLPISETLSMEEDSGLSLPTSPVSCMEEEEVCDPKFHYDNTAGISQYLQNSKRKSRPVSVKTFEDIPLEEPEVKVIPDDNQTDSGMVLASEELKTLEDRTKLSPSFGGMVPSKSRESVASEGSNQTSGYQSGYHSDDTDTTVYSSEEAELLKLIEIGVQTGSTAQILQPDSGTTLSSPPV

Target: Vascular endothelial growth factor receptor 2 (Homo sapiens, UniProt P35968)

## CN(C)C/C=C/C(=O)Nc1ccc2ncnc(Nc3ccc(Br)cc3F)c2c1
  IC50: 4.39 µM
